Assay [1] can be described thus: APR_HepG2_NuclearSize_72hr: Apredica 72-hour HepG2 Assay for Nuclear Size (AID 2282925). The following applies: high-content imaging, actives raise or lower the signal. An outline of the steps:
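HepG2; cpd 0.39–200 uM, 10 conc, duplicate; 72 h; DMSO 0.5% v/v; fix 3.7% formaldehyde 30 min RT; Triton permeabilization; Hoechst 2 ug/mL; HCS imaging 20x; nuclear diameter; gain/loss fit vs DMSO.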

Amino acid sequences for entries named in this document (tags omitted). A change or cut given only in a name is not applied to a line headed by its entry.
UniProt P17676: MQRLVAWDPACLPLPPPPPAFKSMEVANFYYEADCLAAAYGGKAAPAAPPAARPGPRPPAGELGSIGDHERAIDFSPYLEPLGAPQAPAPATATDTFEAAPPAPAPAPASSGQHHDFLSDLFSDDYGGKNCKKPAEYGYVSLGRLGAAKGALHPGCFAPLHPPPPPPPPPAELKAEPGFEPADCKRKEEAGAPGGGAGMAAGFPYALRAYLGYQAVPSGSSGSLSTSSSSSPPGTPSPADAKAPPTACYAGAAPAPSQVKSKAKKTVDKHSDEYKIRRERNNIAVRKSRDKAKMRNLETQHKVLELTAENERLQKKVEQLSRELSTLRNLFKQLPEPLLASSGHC
UniProt Q01094: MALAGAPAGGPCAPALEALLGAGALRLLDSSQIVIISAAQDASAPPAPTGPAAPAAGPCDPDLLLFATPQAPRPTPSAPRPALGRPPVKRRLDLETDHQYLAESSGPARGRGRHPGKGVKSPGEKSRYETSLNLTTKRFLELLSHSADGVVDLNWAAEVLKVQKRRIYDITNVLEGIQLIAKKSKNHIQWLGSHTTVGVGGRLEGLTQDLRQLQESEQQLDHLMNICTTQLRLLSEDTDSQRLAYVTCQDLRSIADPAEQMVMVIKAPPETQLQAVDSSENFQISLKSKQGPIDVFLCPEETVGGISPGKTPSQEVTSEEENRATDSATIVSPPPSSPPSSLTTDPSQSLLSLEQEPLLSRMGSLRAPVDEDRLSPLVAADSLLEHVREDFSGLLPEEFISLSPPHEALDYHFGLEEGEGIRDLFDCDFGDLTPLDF
UniProt P10276, whole entry, looked up: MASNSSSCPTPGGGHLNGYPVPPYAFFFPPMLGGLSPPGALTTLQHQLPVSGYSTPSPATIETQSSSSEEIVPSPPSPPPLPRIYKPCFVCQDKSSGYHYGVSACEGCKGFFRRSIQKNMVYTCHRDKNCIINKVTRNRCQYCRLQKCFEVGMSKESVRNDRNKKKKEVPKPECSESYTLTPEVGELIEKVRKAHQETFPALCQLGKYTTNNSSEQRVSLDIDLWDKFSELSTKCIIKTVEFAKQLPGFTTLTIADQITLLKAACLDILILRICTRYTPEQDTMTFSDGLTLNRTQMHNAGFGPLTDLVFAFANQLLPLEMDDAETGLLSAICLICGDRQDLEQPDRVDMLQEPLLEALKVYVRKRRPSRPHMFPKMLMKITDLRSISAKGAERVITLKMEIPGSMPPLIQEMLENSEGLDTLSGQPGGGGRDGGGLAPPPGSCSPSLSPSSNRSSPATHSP

Assay [2] can be described thus: ATG_CRE_CIS: Attagene CIS-FACTORIAL HepG2 Assay for human cAMP Responsive Element (CRE) binding protein 3 (AID 2282926). As to conditions: HepG2 CRE cis-reporter, Attagene multiplexed mRNA; actives raise or lower the signal. In a few lines: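 Human liver HepG2, transient MRTU transfection, 24 h compound exposure. Total RNA → oligo(dT) RT → PCR → 6-FAM primer extension → HpaI cut → CE. Activity called both directions vs DMSO.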

In assay [3] the target is CCAAT/enhancer-binding protein beta (Homo sapiens) (UniProt P17676). Briefly: ATG_C_EBP_CIS: Attagene CIS-FACTORIAL HepG2 Assay for human CCAAT/Enhancer Binding Protein (C/EBP) beta (AID 2282927). The following applies: HepG2 Attagene cis-factorial transcription factor reporter; actives raise or lower the signal. An outline of the steps: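 Changes in reporter mRNA, rather than exogenous chimeric receptor activity, reflect native C/EBP signalling in transfected HepG2 cells dosed for 24 h; transcripts are detected by RT-PCR and capillary electrophoresis.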

A short description of assay [4]: ATG_DR4_LXR_CIS: Attagene CIS-FACTORIAL HepG2 Assay for human Liver X Receptor (LXR), DR4 submotif (AID 2282929). As to conditions: HepG2 Attagene DR4 cis-reporter, mRNA transcription; actives raise or lower the signal. An outline of the steps: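 Endogenous factor activity at a DR4 cis-element is read as reporter mRNA in transiently transfected HepG2 cells. Exposure lasts 24 h; transcripts are amplified, fluorescently labelled and sized by capillary electrophoresis, with DMSO as baseline.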

Assay [5] is described as follows: ATG_AP_1_CIS: Attagene CIS-FACTORIAL HepG2 Assay for human Activator Protein 1 (AP-1) (AID 2282931). The following applies: HepG2 Attagene cis-factorial AP-1 reporter mRNA; actives raise or lower the signal. An outline of the steps: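 Fluorescence of labelled PCR fragments separated by capillary electrophoresis gives reporter mRNA levels. HepG2 with transfected cis-regulated reporter units, 24 h exposure; DMSO serves as baseline for bidirectional curve fits.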

The nature of assay [6]: ATG_AP_2_CIS: Attagene CIS-FACTORIAL HepG2 Assay for human Activator Protein 2 (AP-2) (AID 2282932). As to conditions: HepG2 AP-2 cis-reporter, Attagene transcription factor profiling; actives raise or lower the signal. In a few lines:
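HepG2, transient MRTU transfection, cis-regulated reporters; 24 h compound exposure; RNA isolated, RT-PCR, 6-FAM labelling, HpaI digest, CE fluorescence. DMSO = negative control/baseline, bidirectional fit.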

Assay [7] in a line: ATG_BRE_CIS: Attagene CIS-FACTORIAL HepG2 Assay for human Bone Morphogenetic Protein (BMP) Response Element (BRE) (AID 2282933). As to conditions: HepG2 BMP response element reporter, Attagene transcription factor profiling; actives raise or lower the signal. An outline of the steps:
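Endogenous transcription factor activity at a BMP response element was monitored in transfected HepG2 cells 24 h after dosing. Fluorescent RT-PCR products were resolved by capillary electrophoresis, and activity was fitted in both directions versus DMSO.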

For assay [8], the target named is Transcription factor E2F1 (Homo sapiens) (UniProt Q01094). Briefly: ATG_E2F_CIS: Attagene CIS-FACTORIAL HepG2 Assay for human E2F Transcription Factor 1 (AID 2282935). The following applies: HepG2 Attagene cis-reporter, E2F reporter RNA transcripts; actives raise or lower the signal. In a few lines:
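Cis-element reporter mRNA induction in transiently transfected HepG2, 24 h exposure. Activity fitted in both directions relative to DMSO negative control.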

Assay [9] in a line: ATG_E_Box_CIS: Attagene CIS-FACTORIAL HepG2 Assay for human Enhancer Box (E-box) (AID 2282936). The following applies: HepG2 E-box cis-reporter transcription, actives raise or lower the signal. In a few lines:
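Cells: HepG2 (human liver), transient MRTU transfection. Exposure 24 h. RNA → oligo(dT) RT → PCR → 6-FAM label → HpaI → CE. Activity fitted both directions relative to DMSO.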

The target in assay [10] is Retinoic acid receptor alpha (Homo sapiens) (UniProt P10276). The assay can be described thus: ATG_DR5_RAR_CIS: Attagene CIS-FACTORIAL HepG2 Assay for human Retinoic Acid Receptor Alpha (RARE), DR5 submotif (AID 2282934).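 As to AC50: reporter responds to endogenous RAR alpha beta and gamma in HepG2 not RARA alone.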 The following applies: HepG2 Attagene cis-factorial RARE DR5 reporter, mRNA; actives raise or lower the signal.

Only a part is listed here, and it is no random draw. Calls of active or inactive are those of the source. The calls were made as follows: active = hit-call score of the fitted dose curve at least 0.9, where 1 is the maximum; inactive = score below 0.9.

The AC50 is the midpoint of the concentration-response curve, whichever way the signal moves.

`CC(C)OP(=S)(OC(C)C)SCCNS(=O)(=O)c1ccccc1`: the result in [1], in assay [2], in assay [3], in assay [4], in assay [5] and in assay [6] was inactive. For the same compound, the compound was called inactive in assay [7], in assay [8] and in [9].

For the compound `CCCCC(CC)CO[P+](=O)OCC(CC)CCCC` (stereo not given), the compound was called inactive in assay [2], in assay [3], in [4], in assay [5], in assay [6] and in assay [7]. Further, the outcome in assay [10], in [8] and in [9] was inactive.

With `O=[p+]1oc2ccccc2c2ccccc21` (stereo not given), the result in assay [2], in [3], in assay [4], in assay [5], in assay [6] and in [7] was inactive. For the same compound, the compound was called inactive in assay [10], in assay [8] and in assay [9].

In the case of `ClP(Cl)c1ccccc1`, the call in assay [2], in assay [3], in assay [4], in [5], in [6] and in assay [7] was inactive. In addition, the result in assay [10], in assay [8] and in [9] was inactive.

Take `O=C1C2CC=CCC2C(=O)N1SC(Cl)(Cl)C(Cl)Cl` (stereo not given): the compound was classed as inactive in [1], in assay [2], in assay [3], in [4], in assay [5] and in assay [6]. The result in [7], in [10], in assay [8] and in assay [9] was inactive.

Turning to `Cc1cc([N+](=O)[O-])cc([N+](=O)[O-])c1O`, the compound was called inactive in assay [1], in assay [4], in assay [6], in assay [10], in [8] and in [9]. In addition, the AC50 was active: 68.3 µM in assay [2], active: 74.1 µM in assay [3], active: 54.7 µM in [5] and active: 100 µM in assay [7].

In the case of `O=P(Cl)(Oc1ccccc1)Oc1ccccc1`, the compound was called inactive in assay [2], in [3], in [4], in assay [5], in assay [6] and in [7]. For the same compound, the call in [8] and in assay [9] was inactive.

Regarding `O=[N+]([O-])c1ccc([N+](=O)[O-])cc1`, the call in [2], in assay [3], in assay [6], in assay [7] and in [10] was inactive. Further, the AC50 in assay [4] is active: 41.4 µM; in assay [5], active: 164 µM; in assay [8] it was active: 144 µM; in assay [9], active: 26 µM.

As for `O=[As]c1ccccc1` (stereo not given), the outcome in assay [3], in assay [5], in assay [6] and in [8] was inactive. Moreover, the AC50 in assay [4] is active: 0.154 µM; in assay [7], active: 0.744 µM; in assay [10], active: 0.524 µM; in assay [9], active: 0.626 µM.

As to `CN(C(=O)Cc1cccc2occc12)[C@H]1CC[C@@]2(CCCO2)C[C@@H]1N1CCCC1`, the call in assay [1], in [2], in assay [3], in assay [4], in assay [5] and in assay [6] was inactive. Further, the compound was classed as inactive in [7], in [10] and in [8]. In addition, the AC50 in assay [9] is active: 124 µM.

With `CCCCO[P+](=O)OCCCC`, the result in assay [2], in [3], in assay [4], in [5], in assay [6] and in [7] was inactive. Also, the compound was called inactive in assay [8] and in [9].

Turning to `O=C(Cl)Oc1ccccc1`, the result in [2], in assay [3], in [4], in assay [5], in assay [6] and in [7] was inactive. The compound was classed as inactive in assay [10], in assay [8] and in [9].

On to `N#CSc1ccc([N+](=O)[O-])cc1[N+](=O)[O-]`, for which the outcome in assay [2], in assay [6], in [7], in assay [10] and in assay [8] was inactive. For the same compound, in assay [5], the AC50 was active: 16 µM.

On to `CC(C)CCCCCCCOP(OCCCCCCCC(C)C)Oc1ccccc1`, for which the call in assay [2], in [3], in assay [6], in assay [7], in assay [10] and in [8] was inactive. In addition, the outcome in assay [9] was inactive. The AC50 is active: 125 µM in [4] and active: 100 µM in assay [5].

For the compound `O=C(Cl)OCCOC(=O)Cl`, the compound was called inactive in assay [2], in [3], in assay [4], in assay [5], in assay [6] and in [7]. In addition, the result in assay [10], in assay [8] and in assay [9] was inactive.

Consider `CCCCOP(OCCCC)OCCCC`, for which the outcome in assay [2], in [3], in assay [4], in assay [5], in assay [6] and in [7] was inactive. The outcome in assay [10], in [8] and in assay [9] was inactive.

On to `O=[P+](Oc1ccccc1)Oc1ccccc1`, for which the call in assay [2], in assay [3], in assay [4], in assay [5], in [6] and in assay [7] was inactive. The result in assay [10], in assay [8] and in [9] was inactive.

(Values after PubChem BioAssay (EPA / NIEHS).)
